Tests used:
[1] = solubility in toluene and methylethyl ketone at room temperature; settings: 25° C.; for Solubility MEK: methylethyl ketone
[2] = maximum absorption wavelength and absorptivity coefficient in toluene (spectrophotometer); assay type: physicochemical
Method: By the use of a spectrophotometer (Shimadzu Seisakusho Ltd., UV-3100), the phthalocyanine compound obtained in this example [VOPc(2,5-Cl2 PhO)8 (2,6-Br2 -4-CH3 PhO)4 {Ph(CH3)CHNH}3 F] was tested for the maximum absorption wavelength and the absorptivity coefficient in toluene.

[3] = transmittance to the visible ray of chloroform solution (JIS R3106); assay type: physicochemical; settings: 1 cm quartz cell, lowest transmittance at 750 to 1050 nm set to 5 to 6%
[4] = in CH2Cl2

| Substance | Solubility MEK [1] | Solubility Toluene [1] | Maximum Absorption Wavelength [2] | Transmittance to Visible Ray [3] | λmax [4] |
| --- | --- | --- | --- | --- | --- |
| octafluoro-octakisanilino oxyvanadium phthalocyanine [Control 2, reference compound] | .circleincircle. (a solubility of not less than 5% by weight) | .circleincircle. (a solubility of not less than 5% by weight) | – | – | – |
| penta(4-methoxyphenylamino)deca(4-methylphenylthio) copper phthalocyanine [Control 3] | .largecircle. | .circleincircle. (a solubility of not less than 5% by weight) | 849 nm | 61% | 860 cm⁻¹ |

— patent US6323340A, “Phthalocyanine compound, method for production thereof, and near infrared absorption dye using the compound” (Nippon Shobukai Co., Ltd., priority 1999, dated 2001)
